Experimental data: US6403626B1, “Benzimidazole derivatives” (Synaptic Pharmaceutical Corporation, priority 1994, dated 2002)

Chains of the proteins cited; added tags and fusions are not shown.
UniProt P18825, whole entry, looked up: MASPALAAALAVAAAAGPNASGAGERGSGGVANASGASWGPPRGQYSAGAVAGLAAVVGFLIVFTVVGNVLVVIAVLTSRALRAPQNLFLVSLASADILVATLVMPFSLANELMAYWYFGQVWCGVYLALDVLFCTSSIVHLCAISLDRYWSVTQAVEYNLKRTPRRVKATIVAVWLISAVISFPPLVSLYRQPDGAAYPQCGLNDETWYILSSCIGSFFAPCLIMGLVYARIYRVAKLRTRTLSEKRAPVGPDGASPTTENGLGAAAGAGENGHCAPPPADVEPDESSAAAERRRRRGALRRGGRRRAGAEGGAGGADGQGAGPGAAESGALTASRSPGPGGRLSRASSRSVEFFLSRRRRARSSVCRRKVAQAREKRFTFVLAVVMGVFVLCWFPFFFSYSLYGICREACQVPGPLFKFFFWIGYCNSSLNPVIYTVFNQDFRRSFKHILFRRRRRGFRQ

Experiments:
[1] = molecular target: α2C Human Adrenergic Receptor (Homo sapiens, UniProt P18825); type: cell-based; details: inhibition of forskolin-stimulated cAMP; NA: Not Active
[2] = tested on: patient undergoing aortocoronary bypass surgery; details: premedication with 5 μg k−1 oral, patients; cited from earlier work

Compound	pEC50 Alpha-2 C [1]	reduction of fentanyl requirements for induction and intubation [2]
Cc1cc2nc[nH]c2cc1NC1=NCCN1	7.65	–
Cc1cc(NC2=NCCN2)cc2[nH]cnc12	8.26	–
Clc1cccc(Cl)c1N=C1NCCN1 [Clonidine, reference compound]	–	45%
Ic1cc(NC2=NCCN2)cc2[nH]cnc12	7.69	–
CCc1nc2ccc(NC3=NCCN3)c(Br)c2[nH]1	7.09	–
FC(F)(F)c1nc2ccc(NC3=NCCN3)c(Br)c2[nH]1	7.19	–
CC(C)(C)c1nc2ccc(NC3=NCCN3)c(Br)c2[nH]1	7.92	–
